# Assay: Drive to obtain fentanyl in rats
# Settings: doses lower than exendin-4
compound,measurement,value
CC[C@H](C)[C@H](NC(=O)[C@H](Cc1ccccc1)NC(=O)[C@H](CCC(=O)O)NC(=O)[C@H](CCCNC(=N)N)NC(=O)[C@@H](NC(=O)[C@H](C)NC(=O)[C@H](CCC(=O)O)NC(=O)[C@H](CCC(=O)O)NC(=O)[C@H](CCC(=O)O)NC(=O)[C@H](CC(C)C)NC(=O)[C@H](Cc1ccc(O)cc1)NC(=O)[C@H](CCCCN=[N+]=[N-])NC(=O)[C@H](CO)NC(=O)[C@H](CC(C)C)NC(=O)[C@H](CC(=O)O)NC(=O)[C@H](CO)NC(=O)[C@@H](NC(=O)[C@H](Cc1ccccc1)NC(=O)[C@@H](NC(=O)CNC(=O)[C@H](CCC(N)=O)NC(=O)[C@@H](CO)NC(=O)[C@@H](N)Cc1c[nH]cn1)[C@@H](C)O)[C@@H](C)O)C(C)C)C(=O)N[C@@H](C)C(=O)N[C@@H](Cc1c[nH]c2ccccc12)C(=O)N[C@@H](CC(C)C)C(=O)N[C@@H](CCCCN)C(=O)N[C@@H](CC(N)=O)C(=O)NCC(=O)NCC(=O)N1CCC[C@H]1C(=O)N[C@@H](CO)C(=O)N[C@@H](CCCNC(=N)N)C(=O)N[C@@H](Cc1c[nH]cn1)C(=O)N[C@@H](Cc1ccc(O)cc1)C(=O)N[C@@H](CC(C)C)C(=O)N[C@@H](CC(N)=O)C(=O)N[C@@H](CC(C)C)C(=O)N[C@H](C(=O)N[C@H](C(=O)N[C@@H](CCCNC(=N)N)C(=O)N[C@@H](CCC(N)=O)C(=O)N[C@@H](CCCNC(=N)N)C(=O)N[C@@H](Cc1ccc(O)cc1)C(N)=O)[C@@H](C)O)C(C)C [GEP44],drive to obtain fentanyl,reduction in the drive to obtain fentanyl

# From patent US12384825B2, “Monomeric peptide multi-agonist targeting the GLP1 receptor and NPY receptors” (Syracuse University, priority 2019, dated 2025)
